These results are taken from patent US9901560B2, “Methods and compositions for treatment of acute lung injury” (dated 2018).

The assay deals with chlorine-induced mortality. Description: Chlorine-induced mortality model in rabbits.

Each structure is given as a SMILES string.

Consider `CC(=N)NCCSCC[C@H](N)C(=O)O`, for which, for the setting “chlorine at LD50 dose (150 ppm for 20 minutes), treated 1 hour after end of exposure, followed 24 hours, FIG. 10A”, the “protection from chlorine-induced mortality (survival)” value is on record as “complete protection from chlorine-induced mortality”. Besides, where the note is “rabbits that survived 24 hours, vehicle-treated versus GW274150-treated, FIG. 10B”, the “severity of ALI as measured by SpO2/FiO2 ratios” value is given as “vehicle-treated rabbits that survived displayed significantly more severe ALI, as measured by SpO2/FiO2 ratios, than GW274150-treated rabbits”.
